Laboratory results from patent US5508261A, “Analogs of glycoprotein hormones having altered receptor binding specificity and activity and methods for preparing and using same” (University of Medicine & Dentistry of New Jersey, priority 1995, dated 1996).

Columns and labels:
[1] = system: rat luteal ovarian LH receptors; assay: Inhibition of 125I-hCG binding to rat corpora luteal LH receptors (radioligand receptor assay); details: competition with 125I-hCG, rat corpora lutea
Method: (§1) These values were obtained by dividing the concentration of analog required to inhibit ^125 I-hCG binding to rat luteal ovarian LH receptors or ^125 I-hFSH binding to bovine testes FSH receptors by 50% into that required for recombinant hCG and recombinant hFSH, respectively. The concentrations of the analogs were determined by sandwich immunoassay using antibodies B105 and All3. The term "N.D." means not determined because concentrations of analog were not employed high enough to detect 50% inhibition.
(§2) An aliquot of the ligation mixture was taken and used to transform DH5-alpha strain E. coli. (obtained from Bethesda Research Laboratories, Gaithersburg, Md.). Plasmid DNAs from ampicillin-resistant DH5-alpha clones were screened by digestion with BglII (which is unique to vectors containing the cassette) and EcoRI (which cuts in the vector). Positive clones were identified by the presence of two fragments (approximately 0.8 Kbp and 2.9 Kbp). […] These were present in the culture media and heterodimer was detected using sandwich immunoassays employing monoclonal antibodies All3 and B105 (10). The protein was concentrated by ultrafiltration and monitored for its abilities to bind to LH and FSH receptors by radioligand receptor assays using ^125 I-hCG and ^125 I-hFSH as tracers and rat ovarian corpora lutea and bovine testes as sources of LH and FSH receptors as described (10). […]

[2] = system: bovine testes FSH receptors; assay: Inhibition of 125I-hFSH binding to bovine testes tissue homogenates (radioligand receptor assay); details: competition with 125I-hFSH
Method: as §1, §2

[3] = Half-life in rat serum after i.v. injection, by sandwich immunoassay; format: in vivo; details: 5-15 micrograms i.v.
Method: FIG. 6 illustrates the half lives of hCG isolated from the urine of pregnant women (uhCG), hCG made in cell culture (rhCG), hFSH made in cell culture (rhFSH), DG (CF94-117) made in cell culture, and PRM1 (CFC94-114) made in cell culture. In these experiments, 5-15 micrograms of the proteins were injected intravenously into the external jugular vein of rats that had been anesthetized with ether. At the times indicated on the abscissa, the rats were reanesthetized and 0.2 ml of blood withdrawn and allowed to clot. The serum from this blood was obtained by centrifuging the clotted blood at 2000×g for 30 minutes. For measurements of hCG, DG, and PRM1, aliquots of the serum (0.1-50 microliters) were used in sandwich immunoassays employing A113 as a capture antibody and radioiodinated B105 as a detection antibody. hCG purified from urine was used as a standard curve to measure hCG, DG, and PRM1. […] FIG. 6 illustrates that all the analogs can be detected in serum for several hours after they have been injected into rats. The value obtained at 1 hour was normalized to be 100% and the amounts of materials that remained after this time were expressed as a percentage of the amount at 1 hour. […]

Substance: rhFSH: recombinant human follicle stimulating hormone, hFSH made in cell culture [reference compound]
- Binding to LH receptors (in words) [1]: several orders of magnitude greater than that of hCG

Substance: rhCG: recombinant human chorionic gonadotropin, hCG made in cell culture [reference compound]
- Binding to FSH receptors (in words) [2]: several orders of magnitude greater than that of hFSH
- Time detectable in serum after injection [3]: ≥ 24 h

Substance: Urinary hCG: hCG isolated from the urine of pregnant women
- Time detectable in serum after injection [3]: ≥ 24 h
